## Measured affinities in a library of Ab-14 light chain variants

Reference: Li et al. 2023, doi:10.1038/s41467-023-39022-2. File: FLAb, binding data.

Target peptide (SARS-CoV-2 spike, HR2 region): PDVDLGDISGINAS

Parent scFv Ab-14: VH joined to VL by a (GGGGS)3 linker. Changes lie in the light chain CDRs alone.
VH: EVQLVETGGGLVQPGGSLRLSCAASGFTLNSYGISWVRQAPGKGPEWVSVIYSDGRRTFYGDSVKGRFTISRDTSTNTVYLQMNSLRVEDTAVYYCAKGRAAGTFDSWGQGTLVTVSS
VL: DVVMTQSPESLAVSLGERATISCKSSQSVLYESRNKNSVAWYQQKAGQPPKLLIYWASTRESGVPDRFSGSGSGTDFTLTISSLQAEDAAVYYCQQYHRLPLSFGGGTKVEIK

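The starting antibody came from a phage panning campaign against this peptide. These sequences belong to a second round, designed from the earlier measurements on random variants of the parent. Group labels follow the data file (Ctrl: baseline library sampled from a position-specific scoring matrix, with some repeated check sequences; Rand: our label for a block that the file lists under HC and that is probably the random mutants of the ten best first-round binders; GP: Gaussian process model; HC: hill climbing; Gen: genetic algorithm; Gibbs: Gibbs sampling; a sequence that several methods proposed may carry one label only). AlphaSeq pools MATa yeast showing the antibodies with MATalpha yeast showing the peptide. Binding brings cells together so that they mate, and sequencing counts the barcode pairs among the diploids. A regression on co-assayed BCL2-family reference pairs converts the normalised counts of each replicate to an apparent Kd. There are six technical replicates.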

Positions count from residue 1 of the parent VL; S25V puts V in place of S. This list holds designs with at most six substitutions. Values are log10 of the apparent Kd in nM; lower means stronger binding. The mean shown is taken over the replicates in which the pair was detected. An entry "nd" has no value in the source: the pair was not observed among the diploids in that replicate. This suggests poor binding but is not conclusive. Order: sorted from the lowest average up, undetected variants last. In the paper, a design with two or fewer of six values counts as a poor binder. Values of this round are not directly comparable with the first-round values of the same sequences. Where one sequence has several entries in the source, the replicates are listed entry by entry, parted by semicolons. The parent sequence was in this pool as ten entries: three were never detected, three once, and four in most replicates, with averages from 0.34 to 2.37. Background: pairings of all light chain designs with three empty control strains gave a value in 4% of cases (median 2.64, 5th percentile 1.59). Values in that range, when seen in few replicates, are hard to tell from nonspecific mating.

- S25V+V29M+S38A+W56N+T59Q [GP_Gen] -> -0.32, -0.50, -0.57, -0.71, -0.53, -0.36 (mean -0.50)
- S25L+V29Q+S38N+W56Q [GP_Gen] -> -0.29, -0.45, -0.55, -0.61, -0.47, -0.38 (mean -0.46)
- S25L+V29M+S33E+W56N+T59Q [GP_Gen] -> -0.20, -0.46, -0.45, -0.61, -0.56, -0.29 (mean -0.43)
- W56A+H98Q [Ctrl] -> -0.56, nd, -0.32, -0.54, -0.31, -0.38 (mean -0.42)
- S25L+S26P+W56E+S62V [GP_Gen] -> -0.37, -0.42, -0.39, -0.57, -0.36, -0.33 (mean -0.41)
- S25V+S26E+V29W+W56N [GP_Gen] -> -0.29, -0.34, -0.44, -0.63, -0.48, -0.20 (mean -0.40)
- S25L+V29E+S38A+W56E+T59Q [GP_Gen] -> -0.25, -0.40, -0.35, -0.50, -0.48, -0.29 (mean -0.38)
- S25L+Q27G+V29W+S38N+W56G [GP_Gen] -> 0.01, -0.09, -0.41, -0.45, -0.44, -0.39 (mean -0.30)
- K24D+S25A+V29W+W56G [GP_HC] -> -0.10, -0.29, -0.40, -0.26, -0.46, -0.19 (mean -0.28)
- S25L+S26F+Q27M+V29Q+W56N [GP_HC] -> -0.02, -0.26, 0.05, -0.37, -0.38, -0.35 (mean -0.22)
- S25M+S33W+W56D [GP_HC] -> -0.06, -0.18, -0.19, -0.56, -0.32, 0.10 (mean -0.20)
- S25L+Q27I+V29G+W56A [GP_HC] -> -0.22, -0.29, -0.24, -0.32, -0.19, 0.10 (mean -0.19)
- S25L+S26Q+V29N+L30W+W56D+T59V [GP_Gibbs] -> 0.15, -0.14, -0.33, -0.49, -0.15, -0.18 (mean -0.19)
- K24H+S25L+Q27W+S28V+W56N+S62Q [GP_HC] -> -0.20, -0.35, -0.11, -0.43, -0.03, 0.09 (mean -0.17)
- S25V+V29Y+W56N+Q96S [GP_Gen] -> -0.06, -0.06, -0.14, -0.24, -0.20, 0.00 (mean -0.12)
- S25F+S26E+V29Q+W56N+E61C [GP_Gen] -> -0.31, -0.12, -0.21, -0.25, 0.06, 0.15 (mean -0.11)
- S25V+S26E+V29D+Y31L+N37Q+W56Q [GP_Gibbs] -> -0.08, 0.08, -0.24, -0.38, 0.06, -0.11 (mean -0.11)
- S25F+Q27P+N35A+W56N [GP_HC] -> -0.03, -0.01, -0.06, -0.07, -0.17, -0.14 (mean -0.08)
- Q27I+V29Q+Y31I+W56E [GP_HC] -> -0.18, -0.04, -0.12, -0.12, 0.02, 0.26 (mean -0.03)
- S25L+V29Q+W56E [Ctrl+GP_Gen] -> 0.04, -0.10, -0.01, -0.28, -0.10, 0.12; 0.17, 0.11, 0.13, 0.09, -0.08, 0.20 (mean 0.02)
- S25L+S26Q+V29N+W56N+E61L [GP_Gen] -> -0.03, 0.09, -0.12, -0.04, 0.07, 0.20 (mean 0.03)
- S25V+V29E+R34G+N35T+W56N+T59S [GP_HC] -> 0.18, 0.00, -0.29, -0.13, 0.34, 0.20 (mean 0.05)
- S25L+V29W+W56N+S103E [GP_Gen] -> 0.18, 0.18, 0.05, -0.03, 0.03, 0.22 (mean 0.11)
- S25L+S26Q+Q27M+V29W+W56N+T59Q [GP_Gen] -> 0.24, 0.25, 0.17, 0.07, 0.00, 0.13 (mean 0.15)
- S25L+V29W+W56N+T59L [GP_Gen] -> 0.21, 0.22, 0.25, 0.06, 0.15, 0.12 (mean 0.17)
- S25V+Q27T+V29E+Y31E+T59H+S62E [GP_Gibbs] -> 0.45, -0.09, 0.48, -0.14, 0.02, 0.41 (mean 0.19)
- Q27I+V29Y+R34Q+W56E [GP_HC] -> 0.22, 0.07, 0.24, 0.24, 0.09, 0.31 (mean 0.19)
- S25L+S26Q+W56N+E61R [GP_Gen] -> 0.28, 0.23, 0.12, 0.23, 0.44, 0.45 (mean 0.29)
- V29Y+K36E+W56E+S62Q [GP_HC] -> 0.43, 0.39, 0.27, 0.30, 0.24, 0.29 (mean 0.32)
- R34A+W56N+E61M [GP_HC] -> 0.39, 0.38, 0.30, 0.19, 0.20, 0.52 (mean 0.33)
- K24Y+S25L+W56E [GP_Gen] -> 0.49, 0.19, 0.30, 0.26, 0.40, 0.36 (mean 0.33)
- S25F+V29D+W56N [GP_Gen] -> 0.37, 0.25, 0.26, 0.38, 0.14, 0.62 (mean 0.34)
- K24H+Q27P+L30Y+Y31M+W56N [GP_HC] -> 0.53, 0.25, 0.51, 0.40, 0.67, 1.09 (mean 0.58)
- S25W+S26L+N35D+W56H+S62D [GP_HC] -> 0.56, 0.94, 0.51, 0.44, 0.85, 0.88 (mean 0.70)
- Q27H+R34T+E61M [Ctrl] -> 0.75, 0.73, 0.67, 0.64, 0.65, 0.90 (mean 0.72)
- S26M+Q27F+L30P+Y31G+W56E+E61C [GP_Gibbs] -> 1.10, 1.20, 0.63, 0.55, 0.41, 0.96 (mean 0.81)
- S25R+S28Q+Y31I+W56K [Ctrl] -> 1.20, 1.09, 0.62, 1.48, 1.05, 1.35 (mean 1.13)
- Q27W+V29Y+W56E+S62Q [GP_HC] -> 1.52, 1.22, 1.50, 0.84, 1.50, 1.22 (mean 1.30)
- Q27Y+V29Y+R34E+N37M+W56E+T59Q [GP_HC] -> 1.67, 1.57, 1.69, 2.31, 0.80, 1.02 (mean 1.51)
- S26P+Q27D+V29I+A57V [Ctrl] -> nd, nd, 1.77, nd, nd, 2.42 (mean 2.09)
- Q27K+Y31P [Ctrl] -> 2.04, 2.43, 2.64, 2.23, 1.93, 3.14 (mean 2.40)
- S26H+L30Y [Ctrl] -> 2.96, nd, nd, 2.02, 2.73, nd (mean 2.57)
- Q27D+L30Y [Ctrl] -> 3.24, 1.71, 1.80, 3.08, 3.01, 3.06 (mean 2.65)
- S26Y+S28N+L30Q+N35P [Ctrl] -> nd, 2.37, nd, 4.53, nd, nd (mean 3.45)
- V29K+W56G+L102Y [Rand] -> nd, nd, 3.31, 5.14, nd, nd (mean 4.23)
- T59W+E61C+Y97I [Ctrl] -> nd, nd, nd, nd, nd, nd
- K24H+L30K+Y31F+W56D [GP_HC] -> nd, nd, nd, nd, nd, nd
- N35Y+T59K [Ctrl] -> nd, nd, nd, nd, nd, nd
- V29F+W56G+Q96C+P101T [GP_HC] -> nd, nd, nd, nd, nd, nd

Excerpt, the first 3 entries:

| changes | group | log10 Kd, replicates | mean, log10 nM |
|---|---|---|---|
| S25V+V29M+S38A+W56N+T59Q | GP_Gen | -0.32, -0.50, -0.57, -0.71, -0.53, -0.36 | -0.50 |
| S25L+V29Q+S38N+W56Q | GP_Gen | -0.29, -0.45, -0.55, -0.61, -0.47, -0.38 | -0.46 |
| S25L+V29M+S33E+W56N+T59Q | GP_Gen | -0.20, -0.46, -0.45, -0.61, -0.56, -0.29 | -0.43 |